The values below come from patent US7595313B2, “Nitric oxide donating diuretic compounds, compositions and methods of use” (NicOx, S.A., priority 2005, dated 2009).

For one test, the system named is Male Wistar rats. The experiment in a line: Determination of the diuresis (urine volume over 6 hours after oral dosing). Particulars: p.o. 3 mg/kg in 0.5% Methocel, mean ± SEM. The class given is in vivo, rat.
Test [1] deals with contractions elicited by 100 nM angiotensin II in isolated rat aorta. The experiment in a line: Angiotensin II-induced contractions in rat aorta.

Several values for one entry are separate records, joined by “and”; a condition that tells them apart may be missing. Identical values can stand only once.

In the case of `NS(=O)(=O)c1cc2c(cc1Cl)N([N+](=O)[O-])CN(CC(CO[N+](=O)[O-])O[N+](=O)[O-])S2(=O)=O` (stereo not shown), the “Urine collected in 6 hours (mL) (3 mg/kg)” value in the test with Male Wistar rats (n=6 or 7) stood at 3.3 ± 0.6 mL.
As for `NS(=O)(=O)c1cc2c(cc1Cl)NCN(CCCC(CO[N+](=O)[O-])(CO[N+](=O)[O-])CO[N+](=O)[O-])S2(=O)=O`, in the test with Male Wistar rats (n=6 or 7, 3 mg/kg), the “Urine collected in 6 hours (mL) (3 mg/kg)” value is 4.3 ± 0.6 mL and 4.1 ± 0.5 mL. In addition, in test [1], the “inhibition of angiotensin-II-induced contractions (in words)” value is reported as “significant inhibition”. Besides, the “% INHIBITION of angiotensin II-induced contraction” value in test [1] (test compound 1 × 10^−6 M) was 64%.
